Experimental findings from ChEMBL document CHEMBL1143696, “Comparative molecular field analysis of the binding of the stereoisomers of fenoterol and fenoterol derivatives to the beta2 adrenergic receptor” (J Med Chem, 2007) are described below.

For this assay, the system named is Ventricular myocyte. Put plainly: Cardiomyocyte contractility in Sprague-Dawley rat ventricular myocytes assessed as shortening of cell length after electrical stimulation. Type of assay: functional, cell-based.

Active and inactive are the calls of the source. The calls are words filed in the database; no cut-off is given here.

Take `C[C@@H](Cc1ccc(O)cc1)NC[C@@H](O)c1cc(O)cc(O)c1`: the result was inactive.
